Source: PubChem BioAssay AID1345083 (National Center for Advancing Translational Sciences (NCATS), 2018)
Only a part is listed here, and it is no random draw. Results filed as inconclusive are left out. Active and inactive are the calls of the source. The call rests on the fitted dose curve; in most records, active means well fitted inhibition curve with a large enough effect; inconclusive means small, poorly fitted or top-dose-only effect; inactive means flat fitted curve, though single readings scatter.

Assay: Cytotoxic Profiling in HEK 293 Cell Line of Diverse Libraries Using Quantitative High-Throughput Screening; further: nearly all actives have a fitted effect of over 60% in size
Conditions: HEK 293 viability, ATP luminescence (CellTiter-Glo), 48-72 h; at 230 µM (top of the series) unless noted
From the text: Cell-based phenotypic screening is a commonly used approach to discover biological pathways, novel drug targets, chemical probes and high-quality hit-to-lead molecules. Many hits identified from high-throughput screening campaign are ruled out through a series of follow-up potency, selectivity/specificity, and cytotoxicity assays. Prioritization of molecules with little or no cytotoxicity for a more in-depth downstream evaluation influence the future direction of projects, so cytotoxicity profiling of the screening libraries at early stage is essential for increasing the likelihood of candidate success. In this study, we analyzed results from a cell-based cytotoxicity screening campaign, comprising nearly 10,000 compounds in NCATS annotated libraries, and over 100,000 compounds in a diversity library, evaluated in four normal cell lines (HEK 293, NIH 3T3, CRL-7250 and HaCat) and a cancer cell line (KB 3-1, a HeLa subline) with overall screening outcomes, hit rates, pan-activity and selectivity. […]
HEK 293 cells were seeded into white 1536-well plates using a Multidrop Combi peristaltic dispenser (ThermoFisher, Waltham, MA) at a density of 250 cells/well in 5 uL of medium respectively. […] Plates were left at room temperature for 10 min before imaging the ATP-coupled luminescence using a ViewLux microplate imager (PerkinElmer, Waltham, MA).
On the % scale 0 is the no-effect control and ±100 the full control effect.

**Q.** For `CNCc1cccc(C)n1`, which activity change, negative = cytotoxicity is on record?
**A.** inactive: 0%

**Q.** For `CNCc1cc2ccccc2o1`, which activity change, negative = cytotoxicity is on record?
**A.** inactive: -6.79% [at 172 µM]
